Assay results from ChEMBL document CHEMBL1124426.

Species on record: Oryctolagus cuniculus
Assay: Percentage of respirations per minute after treatment with morphine when compared to control in rabbit

C=CCN1CC[C@]23c4c5ccc(O)c4O[C@H]2C(=O)CC[C@@]3(O)[C@H]1C5 was tested, and the Reversal was 30%.
